# scFv variants of Ab-14 (heavy chain) against a SARS-CoV-2 spike peptide

Target peptide (SARS-CoV-2 spike, HR2 region): PDVDLGDISGINAS

Ab-14 is the parent antibody, in scFv form: VH, then three GGGGS repeats, then VL. The light chain is unchanged in all variants.
VH: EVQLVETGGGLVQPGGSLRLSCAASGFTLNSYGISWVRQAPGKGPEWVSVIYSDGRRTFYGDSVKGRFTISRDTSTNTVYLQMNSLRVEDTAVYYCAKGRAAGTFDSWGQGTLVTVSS
VL: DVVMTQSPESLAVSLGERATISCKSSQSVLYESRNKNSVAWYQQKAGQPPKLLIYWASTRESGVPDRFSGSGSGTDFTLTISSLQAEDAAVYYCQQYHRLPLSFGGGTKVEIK

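AAYL49 was designed without a model: most single CDR substitutions and a random sample of double and triple ones. AlphaSeq pools MATa yeast showing the antibodies with MATalpha yeast showing the peptide. The frequency of each diploid, read from paired DNA barcodes, reflects how well the two displayed proteins bind. Each replicate has its own calibration line, from reference interactions of the BCL2 family. Each pool was mated in three replicate cultures.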

Substitutions are numbered in sequence along the VH above, starting at 1 (not Kabat).
The read-out is the apparent dissociation constant on a log10 scale (nM): the lower, the stronger.
A mean of the replicates is given; it leaves out those without a signal.
A pair that was not seen in that replicate is written "ND"; this usually means weak binding, but a binder can also be missed.
Nonspecific signal, from three strains lacking the peptide, appeared in 15% of pairings of library AAYL49, centred on 4.06 (5% of these signals below 2.83); values are not corrected for it. The control count says in how many pairings with the empty strains this scFv gave a signal, with their mean in brackets.

changes,"log10 Kd, replicates","mean, log10 nM",empty controls
L29W+R56I+T58G,ND / ND / ND,ND,0 of 9
F27I+S35I+F59L,ND / ND / ND,ND,0 of 9
F27T+S31K+I51D,ND / ND / ND,ND,2 of 9 (3.15)
R56C+R100G+G103H,1.96 / 1.65 / 1.58,1.73,5 of 9 (4.02)
F27P+N30F+G61E,ND / ND / ND,ND,0 of 9
F59S,0.41 / 0.89 / 0.60,0.64,0 of 9
S53N+A102F+D106M,ND / ND / ND,ND,0 of 9
L29K+Y32C+T58K,ND / ND / ND,ND,0 of 9
V50K+A101I,4.79 / 4.89 / 3.85,4.51,3 of 9 (3.78)
Y52V+D62S+T104P,ND / ND / ND,ND,1 of 9 (3.25)
S53F+F59M+D106K,ND / 3.93 / ND,3.93,1 of 9 (4.11)
N30Y+S35G+G61M,ND / 4.39 / ND,4.39,1 of 9 (3.90)
S53C+S63C+F105P,ND / 4.97 / 3.79,4.38,1 of 9 (2.21)
R56L+D62G+T104H,ND / ND / ND,ND,1 of 9 (3.69)
I34N+V64Y,ND / ND / ND,ND,1 of 9 (2.10)
I51G+S53Y+K65T,ND / ND / ND,ND,0 of 9
S31P+K65H+F105T,3.58 / 2.87 / ND,3.23,2 of 9 (3.75)
R57A+G99N+S107W,ND / 5.11 / ND,5.11,4 of 9 (4.63)
V50Q+F59E,ND / 4.32 / 3.94,4.13,3 of 9 (5.15)
Y52Q+S63Y+G103F,ND / ND / ND,ND,0 of 9
G26N+Y32C+G61A,4.37 / 2.68 / 3.31,3.45,1 of 9 (3.04)
Y52V+D62W+F105Y,ND / ND / ND,ND,0 of 9
I51L+Y52H+T104K,ND / ND / ND,ND,1 of 9 (4.88)
G26N+G55H+R100V,ND / ND / ND,ND,2 of 9 (3.59)
T28N+S63D,0.12 / 0.36 / 0.23,0.24,4 of 9 (4.43)
T28F+T58I+V64T,4.14 / ND / 5.82,4.98,3 of 9 (3.74)
R56E+V64G+D106H,0.90 / 1.14 / 1.40,1.15,1 of 9 (4.90)
L29T+A102D+D106W,ND / ND / ND,ND,0 of 9
Y52I+R57Q+D106Y,ND / ND / ND,ND,0 of 9
R57F+K65C,5.79 / 3.36 / ND,4.58,5 of 9 (4.16)

4 of these entries, quoted again:

changes	log10 Kd, replicates	mean, log10 nM	empty controls
R56C+R100G+G103H	1.96 / 1.65 / 1.58	1.73	5 of 9 (4.02)
T28N+S63D	0.12 / 0.36 / 0.23	0.24	4 of 9 (4.43)
N30Y+S35G+G61M	ND / 4.39 / ND	4.39	1 of 9 (3.90)
I51G+S53Y+K65T	ND / ND / ND	ND	0 of 9

In this assay the parent's reference entry averaged 0.65; its copy inside this library read 4.11 (one replicate of three).

From the AlphaSeq antibody data of Engelhart et al. 2022 (doi:10.1038/s41597-022-01779-4), copy in the FLAb collection.